Amino acid sequences for entries named in this document (tags omitted). A change or cut given only in a name is not applied to a line headed by its entry.
UniProt Q9Y6R4: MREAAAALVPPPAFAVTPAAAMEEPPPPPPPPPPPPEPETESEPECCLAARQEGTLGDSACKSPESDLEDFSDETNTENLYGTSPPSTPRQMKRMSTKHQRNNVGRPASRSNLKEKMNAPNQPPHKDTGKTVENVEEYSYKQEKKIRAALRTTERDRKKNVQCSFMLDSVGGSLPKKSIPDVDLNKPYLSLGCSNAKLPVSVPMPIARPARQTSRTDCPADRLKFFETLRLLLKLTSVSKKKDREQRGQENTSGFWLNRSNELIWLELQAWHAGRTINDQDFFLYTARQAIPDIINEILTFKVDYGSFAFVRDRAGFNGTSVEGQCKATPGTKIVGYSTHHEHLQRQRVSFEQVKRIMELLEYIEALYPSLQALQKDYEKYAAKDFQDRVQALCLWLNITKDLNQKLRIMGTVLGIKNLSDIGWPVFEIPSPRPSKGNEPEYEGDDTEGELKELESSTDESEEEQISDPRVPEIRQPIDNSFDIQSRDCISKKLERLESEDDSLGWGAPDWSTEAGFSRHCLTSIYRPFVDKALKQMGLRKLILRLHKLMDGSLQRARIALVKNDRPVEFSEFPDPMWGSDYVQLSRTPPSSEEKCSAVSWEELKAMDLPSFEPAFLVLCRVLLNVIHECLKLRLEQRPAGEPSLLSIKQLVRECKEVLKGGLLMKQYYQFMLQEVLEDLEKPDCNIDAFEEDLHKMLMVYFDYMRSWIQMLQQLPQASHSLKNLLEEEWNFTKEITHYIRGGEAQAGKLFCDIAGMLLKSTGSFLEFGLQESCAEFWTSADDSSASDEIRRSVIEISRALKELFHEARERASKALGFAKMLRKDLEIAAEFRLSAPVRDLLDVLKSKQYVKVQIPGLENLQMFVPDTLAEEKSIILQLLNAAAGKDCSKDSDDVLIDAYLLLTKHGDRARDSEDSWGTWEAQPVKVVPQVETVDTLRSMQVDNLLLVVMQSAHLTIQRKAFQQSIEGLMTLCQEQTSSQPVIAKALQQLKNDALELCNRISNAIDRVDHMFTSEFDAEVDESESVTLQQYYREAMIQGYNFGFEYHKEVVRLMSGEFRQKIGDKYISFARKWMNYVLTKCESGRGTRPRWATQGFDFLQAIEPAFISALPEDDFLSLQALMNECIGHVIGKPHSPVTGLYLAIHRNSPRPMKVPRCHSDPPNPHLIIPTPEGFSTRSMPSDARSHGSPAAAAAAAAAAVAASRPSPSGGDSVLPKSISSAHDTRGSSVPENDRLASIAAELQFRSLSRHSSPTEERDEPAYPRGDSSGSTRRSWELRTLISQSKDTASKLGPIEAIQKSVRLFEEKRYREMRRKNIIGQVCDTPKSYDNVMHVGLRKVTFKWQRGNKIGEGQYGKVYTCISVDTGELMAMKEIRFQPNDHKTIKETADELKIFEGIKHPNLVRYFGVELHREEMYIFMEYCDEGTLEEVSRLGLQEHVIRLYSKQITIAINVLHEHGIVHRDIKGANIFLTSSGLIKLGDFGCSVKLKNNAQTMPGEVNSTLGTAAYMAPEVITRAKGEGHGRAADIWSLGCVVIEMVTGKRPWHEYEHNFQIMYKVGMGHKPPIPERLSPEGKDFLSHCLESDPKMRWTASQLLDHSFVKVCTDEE
UniProt Q5VT25: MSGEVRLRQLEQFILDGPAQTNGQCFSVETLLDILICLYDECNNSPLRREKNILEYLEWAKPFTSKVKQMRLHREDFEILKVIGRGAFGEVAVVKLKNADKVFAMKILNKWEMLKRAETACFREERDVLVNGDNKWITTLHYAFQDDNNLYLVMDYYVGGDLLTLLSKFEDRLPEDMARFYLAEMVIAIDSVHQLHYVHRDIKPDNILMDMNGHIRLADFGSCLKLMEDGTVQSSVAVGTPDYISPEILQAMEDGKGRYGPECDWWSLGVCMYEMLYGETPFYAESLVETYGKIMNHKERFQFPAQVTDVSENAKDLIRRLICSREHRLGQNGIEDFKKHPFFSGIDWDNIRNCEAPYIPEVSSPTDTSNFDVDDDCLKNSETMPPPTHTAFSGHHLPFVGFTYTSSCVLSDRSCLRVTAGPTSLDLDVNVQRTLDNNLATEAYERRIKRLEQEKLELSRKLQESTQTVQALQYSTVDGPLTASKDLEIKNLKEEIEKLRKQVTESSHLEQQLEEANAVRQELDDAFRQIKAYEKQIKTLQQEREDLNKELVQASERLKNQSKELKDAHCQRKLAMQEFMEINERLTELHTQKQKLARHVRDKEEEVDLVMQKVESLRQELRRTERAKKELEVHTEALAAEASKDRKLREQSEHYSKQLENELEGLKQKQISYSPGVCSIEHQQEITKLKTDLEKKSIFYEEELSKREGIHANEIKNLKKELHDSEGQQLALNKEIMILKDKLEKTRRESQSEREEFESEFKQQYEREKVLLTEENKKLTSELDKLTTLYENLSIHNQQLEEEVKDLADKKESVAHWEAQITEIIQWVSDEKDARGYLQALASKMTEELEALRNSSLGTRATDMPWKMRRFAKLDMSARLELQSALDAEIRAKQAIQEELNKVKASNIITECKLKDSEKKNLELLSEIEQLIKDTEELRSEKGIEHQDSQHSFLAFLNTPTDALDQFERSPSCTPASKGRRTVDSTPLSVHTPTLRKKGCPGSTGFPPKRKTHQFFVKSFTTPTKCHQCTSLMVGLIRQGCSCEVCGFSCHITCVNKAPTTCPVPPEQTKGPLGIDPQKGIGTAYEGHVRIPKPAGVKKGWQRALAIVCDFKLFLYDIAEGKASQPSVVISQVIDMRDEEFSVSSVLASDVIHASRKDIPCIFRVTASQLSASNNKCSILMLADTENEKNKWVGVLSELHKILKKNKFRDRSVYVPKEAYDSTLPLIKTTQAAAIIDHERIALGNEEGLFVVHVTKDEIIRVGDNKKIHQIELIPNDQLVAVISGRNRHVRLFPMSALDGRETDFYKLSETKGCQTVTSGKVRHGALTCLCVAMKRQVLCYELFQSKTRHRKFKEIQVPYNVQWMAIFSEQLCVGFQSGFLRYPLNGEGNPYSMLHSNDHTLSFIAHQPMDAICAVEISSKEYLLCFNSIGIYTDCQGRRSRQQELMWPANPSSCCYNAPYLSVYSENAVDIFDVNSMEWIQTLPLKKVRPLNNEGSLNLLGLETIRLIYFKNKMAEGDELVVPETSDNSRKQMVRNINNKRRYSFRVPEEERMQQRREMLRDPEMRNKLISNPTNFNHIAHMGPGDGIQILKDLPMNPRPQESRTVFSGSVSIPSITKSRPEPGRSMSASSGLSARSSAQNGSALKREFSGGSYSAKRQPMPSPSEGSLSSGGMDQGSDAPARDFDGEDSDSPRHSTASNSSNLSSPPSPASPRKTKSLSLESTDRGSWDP
UniProt Q16539, whole entry: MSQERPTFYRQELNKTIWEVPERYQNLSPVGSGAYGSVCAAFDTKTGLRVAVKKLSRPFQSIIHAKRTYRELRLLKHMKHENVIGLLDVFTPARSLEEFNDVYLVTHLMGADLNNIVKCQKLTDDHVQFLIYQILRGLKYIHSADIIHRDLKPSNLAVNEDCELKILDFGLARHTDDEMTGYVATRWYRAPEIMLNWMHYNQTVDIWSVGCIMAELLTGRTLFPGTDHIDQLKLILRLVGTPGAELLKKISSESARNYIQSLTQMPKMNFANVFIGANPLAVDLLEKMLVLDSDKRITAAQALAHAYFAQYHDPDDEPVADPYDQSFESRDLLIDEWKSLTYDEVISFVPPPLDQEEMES

In the supplement of paper PMC11403291:

Experiments:
Experiment in all cases: apparent dissociation constant pKd app (kinobead competition) (-log10(M)); higher = stronger binding
ULK1 = target: T1, ULK1 (UniProt O75385)
T1 sequence (whole entry): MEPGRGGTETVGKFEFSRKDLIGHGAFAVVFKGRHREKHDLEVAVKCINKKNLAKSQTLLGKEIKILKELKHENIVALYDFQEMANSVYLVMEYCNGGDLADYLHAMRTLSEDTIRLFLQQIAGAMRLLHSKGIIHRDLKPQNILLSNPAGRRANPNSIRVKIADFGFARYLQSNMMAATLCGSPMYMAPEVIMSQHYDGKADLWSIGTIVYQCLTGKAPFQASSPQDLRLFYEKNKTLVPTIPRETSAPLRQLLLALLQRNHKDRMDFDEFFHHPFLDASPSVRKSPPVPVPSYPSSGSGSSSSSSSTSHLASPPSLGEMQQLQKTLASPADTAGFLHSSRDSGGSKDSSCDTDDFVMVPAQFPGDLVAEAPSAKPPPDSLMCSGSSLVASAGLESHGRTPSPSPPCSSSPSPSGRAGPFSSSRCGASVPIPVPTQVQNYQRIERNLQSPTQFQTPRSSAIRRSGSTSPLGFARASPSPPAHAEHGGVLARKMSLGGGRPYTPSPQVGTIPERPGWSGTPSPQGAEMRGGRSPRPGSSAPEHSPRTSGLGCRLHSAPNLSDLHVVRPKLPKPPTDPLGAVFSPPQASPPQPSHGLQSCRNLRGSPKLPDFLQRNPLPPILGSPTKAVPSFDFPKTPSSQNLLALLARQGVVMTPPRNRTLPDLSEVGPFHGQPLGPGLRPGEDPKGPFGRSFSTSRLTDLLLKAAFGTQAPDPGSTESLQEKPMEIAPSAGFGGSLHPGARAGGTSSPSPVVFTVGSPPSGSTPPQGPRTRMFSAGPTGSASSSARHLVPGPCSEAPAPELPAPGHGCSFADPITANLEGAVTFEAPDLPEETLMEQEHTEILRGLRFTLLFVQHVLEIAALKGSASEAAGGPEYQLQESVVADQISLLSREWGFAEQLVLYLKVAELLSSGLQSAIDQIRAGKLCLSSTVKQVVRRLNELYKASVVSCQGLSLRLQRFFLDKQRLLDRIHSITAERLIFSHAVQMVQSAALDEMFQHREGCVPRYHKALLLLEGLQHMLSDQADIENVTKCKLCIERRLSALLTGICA

MAP3K4 = MAP3K4 (UniProt Q9Y6R4)
ACVR1B = target: T2, ACVR1B (UniProt P36896)
T2 sequence (whole entry): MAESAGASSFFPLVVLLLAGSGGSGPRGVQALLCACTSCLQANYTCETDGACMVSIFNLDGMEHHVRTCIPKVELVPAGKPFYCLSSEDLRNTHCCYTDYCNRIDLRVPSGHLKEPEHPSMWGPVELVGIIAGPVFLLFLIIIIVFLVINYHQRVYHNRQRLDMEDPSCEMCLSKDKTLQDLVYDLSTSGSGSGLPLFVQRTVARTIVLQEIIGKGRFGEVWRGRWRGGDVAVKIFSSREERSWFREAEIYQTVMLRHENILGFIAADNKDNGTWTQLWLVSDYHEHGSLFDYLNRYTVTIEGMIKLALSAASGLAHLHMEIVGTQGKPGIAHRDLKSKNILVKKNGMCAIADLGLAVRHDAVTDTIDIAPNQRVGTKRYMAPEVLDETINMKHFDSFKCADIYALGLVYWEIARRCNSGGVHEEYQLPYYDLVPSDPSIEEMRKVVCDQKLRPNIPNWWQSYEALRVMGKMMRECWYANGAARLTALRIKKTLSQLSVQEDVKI

CDC42BPA = CDC42BPA (UniProt Q5VT25)
MARK2 = target: T3, MARK2 (UniProt Q7KZI7)
T3 sequence (whole entry): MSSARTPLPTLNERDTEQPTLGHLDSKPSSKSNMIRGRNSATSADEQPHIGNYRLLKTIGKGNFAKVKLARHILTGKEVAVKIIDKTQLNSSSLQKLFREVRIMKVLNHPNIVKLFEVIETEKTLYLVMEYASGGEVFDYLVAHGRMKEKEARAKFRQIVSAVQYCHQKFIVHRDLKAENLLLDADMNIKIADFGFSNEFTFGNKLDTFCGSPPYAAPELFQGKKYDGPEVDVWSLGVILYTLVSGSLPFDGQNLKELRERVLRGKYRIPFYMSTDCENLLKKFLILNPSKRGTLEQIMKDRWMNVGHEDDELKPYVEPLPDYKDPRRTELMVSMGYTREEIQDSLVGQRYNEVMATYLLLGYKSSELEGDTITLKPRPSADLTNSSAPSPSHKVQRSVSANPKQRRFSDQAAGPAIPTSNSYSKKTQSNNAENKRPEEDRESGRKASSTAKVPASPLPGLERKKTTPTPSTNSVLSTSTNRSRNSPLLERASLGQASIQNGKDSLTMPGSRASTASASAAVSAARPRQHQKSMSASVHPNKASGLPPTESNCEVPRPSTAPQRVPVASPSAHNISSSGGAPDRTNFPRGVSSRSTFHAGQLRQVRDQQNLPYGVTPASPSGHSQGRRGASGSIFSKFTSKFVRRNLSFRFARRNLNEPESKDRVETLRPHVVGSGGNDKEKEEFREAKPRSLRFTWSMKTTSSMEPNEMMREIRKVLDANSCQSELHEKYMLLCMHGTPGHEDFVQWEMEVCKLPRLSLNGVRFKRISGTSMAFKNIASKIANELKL

MAPK14 = MAPK14 (UniProt Q16539)

| apparent dissociation constant pKd app (-log10) (ULK1) | apparent dissociation constant pKd app (-log10) (MAP3K4) | apparent dissociation constant pKd app (-log10) (ACVR1B) | apparent dissociation constant pKd app (-log10) (CDC42BPA) | apparent dissociation constant pKd app (-log10) (MARK2) | apparent dissociation constant pKd app (-log10) (MAPK14) | SMILES |
| --- | --- | --- | --- | --- | --- | --- |
| < 4.6 | < 4.6 | < 4.7 | < 4.5 | < 4.6 | < 4.7 | O=C(c1cc(Cc2n[nH]c(=O)c3ccccc23)ccc1F)N1CCN(C(=O)C2CC2)CC1 [Olaparib] |
| < 4.6 | < 4.6 | < 4.7 | < 4.5 | < 4.6 | < 4.7 | NC(=O)c1cccc2cn(-c3ccc([C@@H]4CCCNC4)cc3)nc12 [Niraparib] |
| < 4.6 | < 4.6 | < 4.7 | < 4.5 | < 4.6 | < 4.7 | Cn1ncnc1[C@H]1c2n[nH]c(=O)c3cc(F)cc(c23)N[C@@H]1c1ccc(F)cc1 [Talazoparib] |
